{"source": "patent US4636518A", "about": "“Imidazole derivatives and pharmaceutical compositions” (G. D. Searle & Co., priority 1981, dated 1987)", "system": "collagen induced aggregation of human prp", "assay": "Inhibition of platelet aggregation in vitro, collagen induced (turbidometric)", "type": "cell-based", "conditions": "read-out: I.C.50 (μM) vs COLLAGEN", "method": "(a) Platelet rich plasma (prp) preparation\nHuman venous blood was […] from healthy male donors, who had denied any medication during the previous 14 days. […] The citrated blood was centrifuged at 160 g for 10 mins. at 22° C. to obtain platelet rich plasma (prp). The platelets were then counted on a Coulter counter, and the platelet count was adjusted to 200,000 per μl with plasma.\nInhibition of Platelet Aggregation in vitro"}
{"smiles": "CC(=O)Oc1ccccc1C(=O)O", "note": "[aspirin, reference compound]", "values": [{"measurement": "IC50", "value": 106, "unit": "µM"}]}
